Series [1] in a line: solubility and stability characteristics compared to human amylin. The series is classed as physicochemical.
The nature of series [2]: adsorption onto glass container in liquid form. The class given is physicochemical.

Turning to `CC[C@H](C)[C@H](NC(=O)[C@@H]1CCCN1C(=O)CNC(=O)[C@H](Cc1ccccc1)NC(=O)[C@H](CC(N)=O)NC(=O)[C@H](CC(N)=O)NC(=O)[C@H](CO)NC(=O)[C@H](CO)NC(=O)[C@H](Cc1c[nH]cn1)NC(=O)[C@@H](NC(=O)[C@H](CC(C)C)NC(=O)[C@H](Cc1ccccc1)NC(=O)[C@H](CC(N)=O)NC(=O)[C@H](C)NC(=O)[C@H](CC(C)C)NC(=O)[C@H](CCCNC(=N)N)NC(=O)[C@H](CCC(N)=O)NC(=O)[C@@H](NC(=O)[C@H](C)NC(=O)[C@@H]1CSSC[C@H](NC(=O)[C@@H](N)CCCCN)C(=O)N[C@@H](CC(N)=O)C(=O)N[C@@H]([C@@H](C)O)C(=O)N[C@@H](C)C(=O)N[C@@H]([C@@H](C)O)C(=O)N1)[C@@H](C)O)C(C)C)C(=O)N[C@@H](CC(C)C)C(=O)N1CCC[C@H]1C(=O)N1CCC[C@H]1C(=O)N[C@H](C(=O)N[C@@H](CC(N)=O)C(=O)N[C@H](C(=O)NCC(=O)N[C@@H](CO)C(=O)N[C@@H](CC(N)=O)C(=O)N[C@H](C(=O)N[C@@H](Cc1ccc(O)cc1)C(N)=O)[C@@H](C)O)C(C)C)[C@@H](C)O` [^25,28,29Pro-h-amylin, reference compound], the “solubility and stability characteristics” value in series [1] was “more desirable solubility and stability characteristics”. For the same compound, the “tendency to adsorb onto the glass in a glass container” value in series [2] is “does not have a tendency to adsorb onto the glass”.
On to `CC(C)C[C@H](NC(=O)[C@H](CCCNC(=N)N)NC(=O)[C@H](CCC(N)=O)NC(=O)[C@@H](NC(=O)[C@H](C)NC(=O)[C@@H]1CSSC[C@H](NC(=O)[C@@H](N)CCCCN)C(=O)N[C@@H](CC(N)=O)C(=O)N[C@@H]([C@@H](C)O)C(=O)N[C@@H](C)C(=O)N[C@@H]([C@@H](C)O)C(=O)N1)[C@@H](C)O)C(=O)N[C@@H](C)C(=O)N[C@@H](CC(N)=O)C(=O)N[C@@H](Cc1ccccc1)C(=O)N[C@@H](CC(C)C)C(=O)N[C@H](C(=O)N[C@@H](Cc1c[nH]cn1)C(=O)N[C@@H](CO)C(=O)N[C@@H](CO)C(=O)N[C@@H](CC(N)=O)C(=O)N[C@@H](CC(N)=O)C(=O)N[C@@H](Cc1ccccc1)C(=O)NCC(=O)N1CCC[C@H]1C(=O)N[C@H](C(=O)N[C@@H](CC(C)C)C(=O)N1CCC[C@H]1C(=O)N1CCC[C@H]1C(=O)N[C@H](C(=O)N[C@@H](CC(N)=O)C(=O)N[C@H](C(=O)NCC(=O)N[C@@H](CO)C(=O)N[C@@H](CC(N)=O)C(=O)N[C@H](C(=O)N[C@@H](Cc1ccc(O)cc1)C(N)=O)[C@@H](C)O)C(C)C)[C@@H](C)O)C(C)C)C(C)C` [^25Pro^26Val^28,29Pro-h-amylin], for which the “solubility and stability characteristics” value in series [1] is “more desirable solubility and stability characteristics”.
The same measure, in the same setting: in the case of `CC[C@H](C)[C@H](NC(=O)[C@@H]1CCCN1C(=O)CNC(=O)[C@H](Cc1ccccc1)NC(=O)[C@H](CC(N)=O)NC(=O)[C@H](CC(N)=O)NC(=O)[C@H](CO)NC(=O)[C@H](CO)NC(=O)[C@H](CCCNC(=N)N)NC(=O)[C@@H](NC(=O)[C@H](CC(C)C)NC(=O)[C@H](Cc1ccccc1)NC(=O)[C@H](CC(N)=O)NC(=O)[C@H](C)NC(=O)[C@H](CC(C)C)NC(=O)[C@H](CCCNC(=N)N)NC(=O)[C@H](CCC(N)=O)NC(=O)[C@@H](NC(=O)[C@H](C)NC(=O)[C@@H]1CSSC[C@H](NC(=O)[C@@H](N)CCCCN)C(=O)N[C@@H](CC(N)=O)C(=O)N[C@@H]([C@@H](C)O)C(=O)N[C@@H](C)C(=O)N[C@@H]([C@@H](C)O)C(=O)N1)[C@@H](C)O)C(C)C)C(=O)N[C@@H](CC(C)C)C(=O)N1CCC[C@H]1C(=O)N[C@@H](CO)C(=O)N[C@H](C(=O)N[C@@H](CC(N)=O)C(=O)N[C@H](C(=O)NCC(=O)N[C@@H](CO)C(=O)N[C@@H](CC(N)=O)C(=O)N[C@H](C(=O)N[C@@H](Cc1ccc(O)cc1)C(N)=O)[C@@H](C)O)C(C)C)[C@@H](C)O` [^18Arg^25,28Pro-h-amylin] it was “more desirable solubility and stability characteristics”.

(Values after patent US7671023B2 (Amylin Pharmaceuticals, Inc., priority 2005, dated 2010).)
